In the NIST ThermoML archive (doi:10.1021/acs.jced.9b00011):

Key:
[1] = Crystal; DSC
[2] = Molar enthalpy of transition or fusion; conditions: Crystal; DSC

- Triple point temperature [1]: 414.87 ± 1.3 K
- Molar enthalpy of transition or fusion [2]: 28.2 ± 3.4 kJ/mol
SMILES: COc1cc([N+](=O)[O-])c(OC)cc1Cl [1-chloro-2,5-dimethoxy-4-nitrobenzene]

± gives the expanded uncertainty stated by the source.
